Reference: article PMC7449170, “ATI-2173, a Novel Liver-Targeted Non-Chain-Terminating Nucleotide for Hepatitis B Virus Cure Regimens” (Antimicrobial Agents and Chemotherapy, 2020)

Tests used:
HBV genotype D = conditions: primary human hepatocytes, control compound
[1] = tested on: primary human hepatocytes

Substance: peg-IFN-α2a: Pegylated interferon-α2a (positive control) obtained from Roche
- EC50, HBV DNA (HBV genotype D): 2 IU/ml
- CC50 (50% cytotoxic concentration) [1]: > 100 IU/ml
